# Laboratory results: patent US4994448A, “Condensed quinolinium and isoquinolinium derivatives” (Egis Gyogyszergyar, priority 1987, dated 1991)
# System: writhing (acetic acid)
# Experiment: Analgesic effect, acetic acid writhing test on mice
# Conditions: mouse, in vivo, po
# Description: Method: acetic acid "writhing effect" on mice
# To mice weighing 20-25 g. a 0.75% acetic acid solution is administered intraperitoneally in a volume of 20 ml./kg. According to the method of Neubold the characteristic writhing reactions are counted for each animal between the 5th and 10th minute and the total writhing number obtained for this 5 minutes' period is expressed as the percentage of the control group. The test compound is administered orally, the test is carried out by using a pre-treatment period of 60 minutes and 10 animals are used for each dose.
compound,measurement,value
"CC(=O)Nc1ccc(O)cc1 [Paracetamol, reference compound]",Therapeutical index (writhing test),2.8
